Reported water solubility values for industrial, environmental and drug-like chemicals

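The OPERA project collected these measurements from public sources as training and test data for property models. A listed value is a point estimate from one report or more. Method, purity and exact conditions of the single measurements are not given. A value may pool stereoisomers or salt forms, and the file does not say which form was measured. Some entries may be limits or estimates that an upstream database listed as plain numbers.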

Solubility in water is on a log10 molar scale (set defined at 25 °C).

COc1cc(N=Nc2c(Br)cc([N+](=O)[O-])cc2[N+](=O)[O-])c(NC(C)=O)cc1N(CCOC(C)=O)CCOC(C)=O [C.I. Disperse Blue 79:1] is reported with log S -5.495 (log10 mol/L). Listed for O=C(O)c1cccc2ccccc12 [1-Naphthalenecarboxylic acid]: log S -3.3 (log10 mol/L). The entry for O=S(=O)(O)c1ccc(N=Nc2c(O)ccc3ccccc23)cc1 [C.I. Acid Orange 7 parent] lists log S -0.276 (log10 mol/L). For N=c1oc(=N)oc(=N)o1 [1,3,5-Trioxane-2,4,6-triimine] the data give log S -3.111 (log10 mol/L). Cc1cccnc1C [2,3-Dimethylpyridine] has log S 0.38 (log10 mol/L).

Listed for CN(C)c1ccc(N=Nc2ccc([N+](=O)[O-])cc2)cc1 [Benzenamine, N,N-dimethyl-4-[(4-nitrophenyl)azo]-]: log S -8.699 (log10 mol/L). Listed for CC1(C)CC(CN)CC(C)(C)N1O.N.[Cl-].[Cl-].[Pt+2]: log S -3.069 (log10 mol/L). The entry for CCCOc1ccc(S(=O)(=O)NCCC2CCCN2C)cc1-c1nc(=O)c2c([nH]1)c(CCC)nn2C (centres undefined) [Udenafil] lists log S -3.811 (log10 mol/L). For CC(=O)C(N=Nc1ccccc1C(F)(F)F)C(=O)Nc1ccc2[nH]c(=O)[nH]c2c1 (centres undefined) the data give log S -7.456 (log10 mol/L). CCC1CCCCN1C(=O)COC(=O)c1ccccc1 (centres undefined) [2-(2-Ethylpiperidin-1-yl)-2-oxoethyl benzoate] has log S -2.72 (log10 mol/L).

Listed for Cc1ccc(O)c(C(C)C)c1 [2-Isopropyl-p-cresol]: log S -1.957 (log10 mol/L). The entry for O=C(O)C(O)c1cccc(O)c1 (centres undefined) [Hydroxy(3-hydroxyphenyl)acetic acid] lists log S -0.734 (log10 mol/L). The entry for Nc1ccc2cc(S(=O)(=O)O)cc(S(=O)(=O)O)c2c1 [1,3-Naphthalenedisulfonic acid, 7-amino-] lists log S -0.518 (log10 mol/L). For CCN(CCO)S(=O)(=O)C(F)(F)C(F)(F)C(F)(F)C(F)(F)C(F)(F)C(F)(F)C(F)(F)C(F)(F)F [N-Ethyl-N-(2-hydroxyethyl)perfluorooctanesulfonamide] the data give log S -6.578 (log10 mol/L). CCCCCCC(=O)Oc1c(Br)cc(C#N)cc1Br [Bromoxynil heptanoate] has log S -6.69 (log10 mol/L).

CC1CCC(C(C)C)c2cnc(NS(=O)(=O)c3ccc(N)cc3)nc21 (centres undefined) is reported with log S -4.177 (log10 mol/L). Listed for Clc1ccc(Oc2c(Cl)cccc2Cl)cc1Cl [Benzene, 1,3-dichloro-2-(3,4-dichlorophenoxy)-]: log S -6.56 (log10 mol/L). CCCCCCCC/C=C\CCCCCCCC(=O)OCC(O)COC(=O)[C@@H]1CCC(=O)N1 (stereo partly drawn) [2-Hydroxy-3-(oleoyloxy)propyl 5-oxo-L-prolinate] has log S -7.937 (log10 mol/L). Cc1ccc(NC(=O)N(C)C)cc1 [Urea, N,N-dimethyl-N'-(4-methylphenyl)-] has log S -1.64 (log10 mol/L). The entry for OC1CCCCCC1 [Cycloheptanol] lists log S -0.88 (log10 mol/L).

Listed for NNS(=O)(=O)c1ccc(Oc2ccc(S(=O)(=O)NN)cc2)cc1 [4,4'-Oxybis(benzenesulfohydrazide)]: log S -3.758 (log10 mol/L). The entry for CC(CC=O)CC(C)(C)C (centres undefined) [3,5,5-Trimethylhexanal] lists log S -2.914 (log10 mol/L). Cc1cc(N)ccc1Br [4-Bromo-m-toluidine] is reported with log S -2.719 (log10 mol/L). CCCCCCCC/C=C\CCCCCCCC(=O)NCCNC(=O)CCCCCCC/C=C\CCCCCCCC [9-Octadecenamide, N,N'-1,2-ethanediylbis-, (9Z,9'Z)-] has log S -6.226 (log10 mol/L). For CCOC(=O)C(C)NC(=O)c1ccco1 (centres undefined) [Ethyl N-2-furoylalaninate] the data give log S -1.105 (log10 mol/L).

Listed for O=C1O[C@@H]([C@H](O)[C@H](O)CO)[C@@H](O)[C@H]1O [Heptono-1,4-lactone]: log S 0.393 (log10 mol/L). Clc1ccc(Cl)c(Oc2ccc(Cl)c(Cl)c2Cl)c1 [2,2',3,4,5'-Pentachlorodiphenylether] has log S -7.7 (log10 mol/L). For CNc1ccc(N)c2c1C(=O)c1ccccc1C2=O [C.I. Solvent Violet 12] the data give log S -5.64 (log10 mol/L). Listed for CO[C@H]1C[C@H](O[C@H]2[C@H](C)[C@@H](O[C@@H]3O[C@H](C)C[C@H](N(C)C)[C@H]3OC(C)=O)[C@@H](C)C[C@]3(CO3)C(=O)[C@H](C)[C@@H](OC(C)=O)[C@@H](C)[C@@H](C)OC(=O)[C@@H]2C)O[C@@H](C)[C@@H]1OC(C)=O [Troleandomycin]: log S -4.627 (log10 mol/L). CO/N=C(\C(=O)N[C@@H]1C(=O)N2C(C(=O)O)=C(CSC(=O)c3ccco3)CS[C@H]12)c1csc(N)n1 [Ceftiofur] is reported with log S -4.36 (log10 mol/L).

Cn1cc[nH]c1=S [Methimazole] is reported with log S -4.62 (log10 mol/L). CCS(=O)(=O)CC has log S 0.04 (log10 mol/L). For N[C@@H](CSSc1ccccc1)C(=O)O [3-(Phenyldithio)-L-alanine] the data give log S -2.661 (log10 mol/L). O=C(O)C(F)(F)C(F)(F)C(F)(F)C(F)(F)C(F)(F)C(F)(F)C(F)(F)C(F)(F)C(F)(F)C(F)(F)C(F)(F)C(F)(F)C(F)(F)C(F)(F)C(F)(F)C(F)(F)C(F)(F)F [Perfluorooctadecanoic acid] is reported with log S -8.289 (log10 mol/L). Cc1cccc(C)n1 [2,6-Dimethylpyridine] is reported with log S 0.45 (log10 mol/L).

CCCCNC(=S)NCCCC [N,N'-Dibutylthiourea] has log S -2.949 (log10 mol/L). O=C(Oc1ccccc1C(=O)O)c1ccccc1O [Salsalate] is reported with log S -3.021 (log10 mol/L). C=CC(=O)NC(C)C [N-Isopropylacrylamide] is reported with log S 0.273 (log10 mol/L). C/C(Cl)=C/C(=O)O [(2Z)-3-Chloro-2-butenoic acid] has log S -0.704 (log10 mol/L). For Cc1nn(-c2ccccc2)c(=O)[c-]1/N=N/c1cc([N+](=O)[O-])ccc1[O-].Cc1nn(-c2ccccc2)c(=O)[c-]1/N=N/c1cc([N+](=O)[O-])ccc1[O-].[Cr+3].[H+] the data give log S -2.313 (log10 mol/L).

For CCC(=O)C(C)C(=O)O (centres undefined) [2-Methyl-3-oxopentanoic acid] the data give log S -0.637 (log10 mol/L). The entry for Oc1cccc2scnc12 [4-Hydroxybenzothiazole] lists log S 0.765 (log10 mol/L). For N[C@@H]1[C@@H](O)[C@H](O)[C@@H](CO)O[C@H]1O [Glucosamine] the data give log S 0.265 (log10 mol/L). The entry for C[C@H](NC(=N)N)C(=O)O [L-Alanine, N-(aminoiminomethyl)-] lists log S -0.199 (log10 mol/L). The entry for O=NN(CCCl)C(=O)NC1CCCCC1 [Lomustine] lists log S -2.491 (log10 mol/L).

The last 4 entries again:

For Oc1cccc2scnc12 [4-Hydroxybenzothiazole] the data give log S 0.765 (log10 mol/L).
For N[C@@H]1[C@@H](O)[C@H](O)[C@@H](CO)O[C@H]1O [Glucosamine] the data give log S 0.265 (log10 mol/L).
For C[C@H](NC(=N)N)C(=O)O [L-Alanine, N-(aminoiminomethyl)-] the data give log S -0.199 (log10 mol/L).
For O=NN(CCCl)C(=O)NC1CCCCC1 [Lomustine] the data give log S -2.491 (log10 mol/L).

Values as listed in the OPERA 2.9 repository of K. Mansouri.